Results on 17 molecules are retold here after PubChem BioAssay AID651687 (Broad Institute, 2012).

Structures are written as SMILES. The entries are a selection whose mix differs from that of the whole data set. Some results for these compounds are left out of this collection, so the calls shown say nothing about other tests. Calls of active or inactive are those of the source.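 Rule for the calls: active = every replicate shows inhibition of at least 40%; inconclusive = mean inhibition at least 40% but some replicate below; inactive = the rest.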

This test is described as follows: compounds lowering acetylated PGC1a in cells – cell-based, U2OS, AlphaScreen, inhibitor mode, primary screen (AID 651687).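 Note: 0% = neutral control wells and 100% = positive control wells.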 To be noted: U2OS PGC1a acetylation, AlphaScreen anti-acetyl-lysine; at 15.6 µM; active compounds read high; with virally co-expressed GCN5 acetyltransferase.
Regarding `O=C(OC1CN2CCC1CC2)C(CO)(c1ccccc1)c1ccccc1` (configuration not stated), the inhibition was inactive: -9.06%.
For `C=C(C)C#CC(O)(C(=O)OC1CCN(C)CC1)c1ccccc1` (configuration not stated), the inhibition is inactive: -8.88%.
Turning to `COc1ccc(Br)c(C(=O)NCC2(N3CCCCC3)CCCCC2)c1`, the inhibition was inactive: 6.44%.
The result for `O=C(OCCN1CCCC1)C(O)(c1ccccc1)c1ccccc1` reads inactive: -1.12%; that for `CC(C)Oc1ccc(C(=O)NCC2(N(C)C)CCCCC2)cc1`, inactive: 1.03%; that for `CN(C)c1cccc(C(=O)NCC2(N(C)C)CCCCC2)c1`, inactive: 3.19%.
The result for `CN(C)C1(CNC(=O)c2ccc(Br)cc2)CCCCC1` reads inactive: 1.06%; that for `COc1ccc(Cl)cc1C(=O)NCC1(N(C)C)CCCCC1`, inactive: 34.1%.
The result for `COc1cccc(C(=O)NCC2(N3CCCCC3)CCCCC2)c1` reads inactive: -1.83%; that for `O=C(NCC1(N2CCCCC2)CCCCC1)c1cccc(Cl)c1`, inactive: 2.27%; that for `CN(C)c1ccc(C(=O)NCC2(N(C)C)CCCCC2)cc1`, inactive: 12.8%.
`C=CCN1CCN(CCOC(=O)C(O)(c2ccccc2)c2ccccc2)CC1`: the inhibition is inactive: 2.98%.
Turning to `COc1ccc(C(=O)NCC2(N(C)C)CCCCC2)cc1`, the inhibition was inactive: 4.3%.
The result for `O=C(NCC1(N2CCCCC2)CCCCC1)c1cccc(Br)c1` reads inactive: -17.6%.
The result for `CN1[C@@H]2CC[C@H]1CC(OC(=O)C(O)(c1ccccc1)c1ccccc1)C2` (some centres not stated) reads inactive: 9.88%; that for `CCN(CC)CC(C)C(C)OC(=O)C(O)(c1ccccc1)c1ccccc1` (configuration not stated), inactive: 10.1%; that for `CC(C)N1C(=O)CC2(CCN(CCOC(=O)C(O)(c3ccccc3)c3ccccc3)CC2)C1=O`, inactive: 3.91%.
